Data from patent US20230322924A1.

Tests used:
[1] = target: Cyno CD33 full length, expressed on HEK293F cells (cynomolgus monkey); test: flow cytometry, HEK293F cells expressing cyno CD33
[2] = target: Human CD33 full length, expressed on HEK293F cells (human) (UniProt P20138); test: flow cytometry, HEK293F cells expressing human CD33
[3] = target: Human CD33 ECD-HSA (human); test: SPRi off-rate screen (IBIS MX96), mAb captured by anti-human Fc; column head prints KD
[4] = target: Cyno CD33 ECD-HSA (cynomolgus monkey); test: SPRi off-rate screen (IBIS MX96), mAb captured by anti-human Fc; column head prints Cyno CD33 binding KD
[5] = target: Cyno CD33 ECD-HSA (cynomolgus monkey); test: ProteOn SPR, mAb captured by anti-human Fc, 1:1 Langmuir fit
[6] = target: Human CD33 ECD-HSA (human); test: as above

Substance | MFI at 0 nM mAb (background) [1] | MFI at 0.6 nM mAb [1] | MFI at 6 nM mAb [1] | MFI at 60 nM mAb [1] | MFI at 0 nM mAb (background) [2] | MFI at 0.6 nM mAb [2] | MFI at 6 nM mAb [2] | MFI at 60 nM mAb [2] | koff [3] | koff [4] | Kd [5] | koff [5] | kon [5] | Kd [6] | koff [6] | kon [6]
C33B56 (antibody) | 83.3 MFI | 78.6 MFI | 85.9 MFI | 104 MFI | 138 MFI | 112 MFI | 79.7 MFI | 144 MFI | 0.00402 s⁻¹ | 0.000846 s⁻¹ |  |  |  |  |  | 
C33B64 (antibody) | 99.8 MFI | 3100 MFI | 9690 MFI | 21100 MFI | 115 MFI | 7560 MFI | 54100 MFI | 200000 MFI | 0.00171 s⁻¹ | 0.00121 s⁻¹ | 1.71 nM | 0.00101 s⁻¹ | 590000 M⁻¹ s⁻¹ | 5.1 nM | 0.00221 s⁻¹ | 433000 M⁻¹ s⁻¹
C33B75 (antibody) | 124 MFI | 1710 MFI | 5580 MFI | 12200 MFI | 95.9 MFI | 4520 MFI | 29600 MFI | 164000 MFI | 0.00416 s⁻¹ | 0.0012 s⁻¹ | 2.15 nM | 0.00132 s⁻¹ | 616000 M⁻¹ s⁻¹ | 11.4 nM | 0.00441 s⁻¹ | 385000 M⁻¹ s⁻¹
C33B95 (antibody) | 80.8 MFI | 1640 MFI | 9590 MFI | 14800 MFI | 87.4 MFI | 6400 MFI | 44400 MFI | 155000 MFI | 0.00599 s⁻¹ | 0.00698 s⁻¹ | 9.56 nM | 0.00806 s⁻¹ | 844000 M⁻¹ s⁻¹ | 15.4 nM | 0.0074 s⁻¹ | 482000 M⁻¹ s⁻¹
